# Results published in ChEMBL document CHEMBL1143161, “Non-charged thiamine analogs as inhibitors of enzyme transketolase” (Bioorg Med Chem Lett, 2008).
# By UniProt entry, the sequences of proteins in these tests, tags left out.
# UniProt P29401, whole entry, looked up: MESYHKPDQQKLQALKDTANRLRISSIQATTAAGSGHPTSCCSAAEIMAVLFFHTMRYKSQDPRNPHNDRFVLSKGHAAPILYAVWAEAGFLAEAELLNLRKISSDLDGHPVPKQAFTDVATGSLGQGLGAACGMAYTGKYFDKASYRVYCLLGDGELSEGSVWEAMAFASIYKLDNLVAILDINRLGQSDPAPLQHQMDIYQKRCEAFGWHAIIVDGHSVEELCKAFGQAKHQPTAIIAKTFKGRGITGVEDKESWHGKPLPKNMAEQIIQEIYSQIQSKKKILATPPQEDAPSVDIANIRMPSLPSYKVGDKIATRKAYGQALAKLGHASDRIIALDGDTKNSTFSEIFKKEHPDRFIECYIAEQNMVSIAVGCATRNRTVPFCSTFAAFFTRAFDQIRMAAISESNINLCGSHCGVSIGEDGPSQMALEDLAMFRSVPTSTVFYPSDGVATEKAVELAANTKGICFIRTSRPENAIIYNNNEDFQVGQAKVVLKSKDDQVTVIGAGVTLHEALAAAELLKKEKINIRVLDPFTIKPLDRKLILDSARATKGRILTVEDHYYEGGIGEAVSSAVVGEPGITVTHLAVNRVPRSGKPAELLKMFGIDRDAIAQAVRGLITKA
# Molecular target: Transketolase (Homo sapiens, UniProt P29401)
# Assay: Inhibition of apo-transketolase
compound,measurement,value
Cc1ncc(C[n+]2csc(CCOP(C)(=O)OP(=O)(O)O)c2C)c(N)n1 (stereo unspecified),Kd,170 nM
